Data reported in ChEMBL document CHEMBL1142627, “Ribofuranosyl triazolone: a natural product herbicide with activity on adenylosuccinate synthetase following phosphorylation” (J Nat Prod, 2000).

Test system: BMS
Assay: Inhibition of Zea mays BMS cells Adenylosuccinate synthase assessed as adenylosuccinate formation
Assay type: cell-based

**Q.** Which Activity does the source give for `O=c1[nH]ncn1[C@@H]1O[C@H](COP(=O)(O)O)[C@@H](O)[C@H]1O` [PHOSPHORIBOFURANOSYL TRIAZOLONE] here?
**A.** The Activity was “tde”.
